Reference: US20230277630A1, “METHODS AND COMPOSITIONS FOR TREATING AMYOTROPHIC LATERAL SCLEROSIS” (Amylyx Pharmaceuticals, Inc., priority 2022, published 2023)

Columns and labels:
P-gp and BCRP [1] = details: human, Caco-2, 10 μM, pH 7.4
P-gp and BCRP [2] = experiment: P-gp and BCRP substrate assessment, bidirectional permeability in C2BBe1 cells; details: 10 μM probe, batch used with Sol_1, Sol_3, and Sol_4, single replicates

With `Nc1nc(Cl)nc2c1ncn2[C@H]1C[C@H](O)[C@@H](CO)O1` [cladribine] the “AP-to-BL Recovery” value (P-gp and BCRP [1]) was 86.8% and the “BL-to-AP Recovery” value (P-gp and BCRP [1]) was 97.9%.
`C[C@H]1O[C@@H](O[C@H]2[C@@H](O)C[C@H](O[C@H]3[C@@H](O)C[C@H](O[C@H]4CC[C@@]5(C)[C@H](CC[C@@H]6[C@@H]5C[C@@H](O)[C@]5(C)[C@@H](C7=CC(=O)OC7)CC[C@]65O)C4)O[C@@H]3C)O[C@@H]2C)C[C@H](O)[C@@H]1O` [digoxin] was tested, and the “AP-to-BL Recovery” value (P-gp and BCRP [2]) was 82.4%.

Where two headings read alike, the source gives them in different places.
